Here are results for one substance from patent publication US8741944B2, “Anti-infective agents against intracellular pathogens” (priority 2007, dated 2014).

Protein sequences, listed by entry. Tags and fused reporters are not part of them. Lines headed by an entry give the natural chain unless they say otherwise; changes in a name come on top.
UniProt O15530: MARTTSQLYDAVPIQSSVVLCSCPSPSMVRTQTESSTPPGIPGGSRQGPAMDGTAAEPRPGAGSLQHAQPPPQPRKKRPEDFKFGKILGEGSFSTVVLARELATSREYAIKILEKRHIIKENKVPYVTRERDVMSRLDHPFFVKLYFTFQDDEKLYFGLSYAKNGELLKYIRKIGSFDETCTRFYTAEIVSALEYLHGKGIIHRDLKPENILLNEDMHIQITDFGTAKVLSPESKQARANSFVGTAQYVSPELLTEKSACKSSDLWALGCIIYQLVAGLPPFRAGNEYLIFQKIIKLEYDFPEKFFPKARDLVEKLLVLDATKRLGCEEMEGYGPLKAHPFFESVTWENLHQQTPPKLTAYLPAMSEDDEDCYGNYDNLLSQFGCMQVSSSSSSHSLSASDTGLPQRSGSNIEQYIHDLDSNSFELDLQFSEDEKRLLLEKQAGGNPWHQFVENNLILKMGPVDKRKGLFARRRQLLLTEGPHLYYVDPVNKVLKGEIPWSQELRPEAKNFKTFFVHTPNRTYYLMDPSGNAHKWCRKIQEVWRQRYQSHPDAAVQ

The target of the test is recombinant PDK-1 (Homo sapiens (Human), UniProt O15530). Put plainly: PDK-1 kinase activity (PDK-1 kinase assay kit, cell-free). The test is classed as biochemical. The following applies: inhibiting recombinant PDK-1 kinase activity. The procedure: PDK-1 kinase activity This in vitro assay was performed using a PDK-1 kinase assay kit (Upstate, Lake Placid, N.Y.) according to the vendor's instructions. This cell-free assay is based on the ability of recombinant PDK-1, in the presence of DMSO vehicle or the test agent, to activate its downstream kinase serum- and glucocorticoid-regulated kinase (SGK.) which, in turn, phosphorylates the Akt/SGK-specific peptide substrate RPRAATF with [γ-^32]-ATP. […] The reported values represent the means of two independent determinations.

Broadly, the IC50 is the concentration at which inhibition is half-maximal.

For the substance “4-[5-(4′-methyl[1,1′-biphenyl]4-yl)-3-(trifluoromethyl)-1H-1-yl]benzenesulfonamide [Compound 50]”, the IC50 was 15 µM.
